Experimental data reported in patent US11459338B2, “Heterocyclic compounds as PRMT5 inhibitors” (JUBILANT EPISCRIBE LLC, priority 2018, dated 2022).

By UniProt entry, the sequences of proteins in these tests, tags left out.
UniProt O14744, whole entry: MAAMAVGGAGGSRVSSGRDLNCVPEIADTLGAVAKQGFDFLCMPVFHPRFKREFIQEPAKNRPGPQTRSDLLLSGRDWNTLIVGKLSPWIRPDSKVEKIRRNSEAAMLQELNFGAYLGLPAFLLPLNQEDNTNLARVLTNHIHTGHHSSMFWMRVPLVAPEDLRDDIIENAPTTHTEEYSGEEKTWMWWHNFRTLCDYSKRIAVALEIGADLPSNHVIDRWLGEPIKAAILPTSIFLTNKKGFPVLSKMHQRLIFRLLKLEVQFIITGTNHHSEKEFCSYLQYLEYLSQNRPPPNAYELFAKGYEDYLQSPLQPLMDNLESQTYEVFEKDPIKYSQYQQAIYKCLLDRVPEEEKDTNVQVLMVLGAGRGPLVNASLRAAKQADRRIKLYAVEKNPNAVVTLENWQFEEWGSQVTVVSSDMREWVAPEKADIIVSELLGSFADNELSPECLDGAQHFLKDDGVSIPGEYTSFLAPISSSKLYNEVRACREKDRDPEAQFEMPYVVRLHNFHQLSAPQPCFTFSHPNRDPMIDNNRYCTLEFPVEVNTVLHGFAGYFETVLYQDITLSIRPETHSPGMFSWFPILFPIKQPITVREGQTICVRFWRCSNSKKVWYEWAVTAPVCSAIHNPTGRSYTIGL
UniProt Q9BQA1, whole entry partner: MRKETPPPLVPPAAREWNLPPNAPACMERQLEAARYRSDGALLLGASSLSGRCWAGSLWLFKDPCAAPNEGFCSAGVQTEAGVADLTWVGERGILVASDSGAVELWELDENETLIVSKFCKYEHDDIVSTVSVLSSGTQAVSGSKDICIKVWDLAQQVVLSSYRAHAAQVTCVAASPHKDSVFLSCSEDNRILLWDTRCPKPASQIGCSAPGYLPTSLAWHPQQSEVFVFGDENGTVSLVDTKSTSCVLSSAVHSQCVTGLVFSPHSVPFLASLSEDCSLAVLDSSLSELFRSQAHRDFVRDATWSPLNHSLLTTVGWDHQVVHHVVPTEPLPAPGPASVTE

Key:
[1] = target: PRMT5/MEP50 (Homo sapiens, UniProt O14744); assay: PRMT5/MEP50 enzyme assay on peptide substrates (3H-SAM Flashplate); type: biochemical; details: read-out: PRMT5 Enzyme IC50 μM; PRMT5/MEP50 10 nM, H4 1-15aa peptide 100 nM, 3H-SAM 1 μM
[2] = system: Z-138 cells; assay: Z-138 long term proliferation assay (Cell Titer Glo); type: cell-based; details: read-out: PRMT5 Z138 GI50 Day 8 μM, cell viability

IC50 [1]: 0.01 to 1 µM
Structure (SMILES): O=C(NC[C@H](O)CN1CCc2ccccc2C1)c1cn2cc(Br)ccc2n1
GI50 [2]: 0.01 to 1 µM
